This is an account of results in US20060159666A1, “Method of potentiating inflammatory and immune modulation for cell and drug therapy” (priority 2004, published 2006).

In assay [1] the test system is HUCBCs. Description: Human cytokine antibody array of HUCBC conditioned medium. The following applies: Ex Vivo 10 medium; IL-3 5 ng/mL or TPO 25 ng/mL for 5 d; 42-cytokine array. In kind it is cell-based. The procedure: The mononuclear fraction of the HUCBCs was obtained from Saneron CCEL Therapeutics, Inc. (Oldsmar, Fla.). Frozen samples were thawed in 10 mL of DMEM (Gibco), supplemented with 5% fetal bone serum (FBS, Gibco) and gentamicin (50 μg/mL, Sigma), or with Ex Vivo 10 media with gentamicin (50 μg/mL, Sigma). After centrifugation for 10 min at 200 rpm, the supernatant was removed and the cells were resuspended in 1 mL of the same medium. The viability of all samples ranged from 73% to 95% as determined by the ability to exclude trypan blue dye. Cells were then cultured for 3 to 14 d for cytokine arrays and ELISA assays; cells cultured in Ex Vivo 10 media were further stimulated with IL-3, TPO or both.
Human Cytokine Arrays: The therapeutic benefit of the HUCBCs may be through production of cytokines or chemokines at the site of injury. In order to address this, we used human cytokine arrays to establish whether the HUCBCs secreted these proteins. […]
The medium from these cultures was harvested and incubated with the array membrane to allow cytokine binding to immobilized antibodies spotted on the arrays. […] The most cytokines were recorded with 5×10^7 million HUCBCs in Ex Vivo 10 Medium alone. […]
Human Cvtokine Array. The conditioned medium from HUCBCs was analyzed for 23 different cytokines. […]

Assay [2] concerns HUCBCs. In words: 96-Chemotx migration assay of HUCBCs to recombinant chemoattractants. As to conditions: MCP-1 5-30 ng/mL, IL-3 1-10 ng/mL, TPO 10-40 ng/mL; 4 hr; ATP luminescence. In kind it is cell-based, human. As to the method:
To examine whether MCP-1, IL-3 or TPO were chemoattractant(s) for HUCBCs, migration assays were performed. MCP-1, IL-3 and TPO were selected as chemoattractants because MCP-1 has been found in rat ischemic striatal tissue and IL-3 and TPO are often added to culture medium for maintaining long-term cultures and enhancing progenitor cell proliferation.
HUCBCs were prepared as described above and cultured for 24 hr before use. The 96-Chemotx chambers (NeuroProbe, Gaithersburg, Md.) were used for the migration assays. The chamber is a 96-well plate consisting of bottom wells to hold the unknowns or chemoattractant and a top plate, which is a polycarbonate membrane with 5 μm pore size. The chemoattractants used in this study were human recombinant MCP-1 (5, 10, 20 and 30 ng/mL; Endogen, Woburn, Mass.), IL-3 (1, 5 and 10 ng/mL), TPO (10, 25 and 40 ng/mL), and stromal cell-derived factor-1 (SCF-1; 100 ng/mL); positive control (SDF-1; Serologicals, Norcross, Ga.), along with the serum-free DMEM and Ex Vivo 10. All were pipetted (300 μL) directly into the bottom wells, in triplicate, after which the top plate was securely attached. The HUCBCs were pipetted directly into each top well at a concentration of 62,000 cells per 25 μL. […] The migration plate was read in an automated plate reader (BioTek) set to the appropriate luminescence.

B1: IL-3: cytokine known to stimulate hematopoietic cells, used as chemoattractant and culture stimulant (protein, UniProt P08700 20-152, looked up)
Interleukin-3: APMTQTTPLKTSWVNCSNMIDEIITHLKQPPLPLLDFNNLNGEDQDILMENNLRRPNLEAFNRAVKSLQNASAIESILKNLLPCLPLATAAPTRHPIHIKDGDWNEFRRKLTFYLKTLENAQAQQTTLSLAIF
Take B1: the “cytokine release from HUCBCs after stimulation” value in assay [1] is reported as “release of many cytokines”. In addition, the “HUCBC migration to chemoattractant compared to controls (DMEM and PBS)” value in assay [2] is given as “Significantly more HUCBCs migrated”.
